Assay results published in patent US11517645B2, “Bone-tendon graft biomaterial, use as a medical device and method of making same” (The Board of Trustees of the Leland Stanford Junior …, priority 2016, dated 2022).

Key:
C2C12 cells [1] = assay: ALP staining, C2C12 on BMP-2-biopatterned fibrin-coated QHM polymers; type: cell-based, mouse; details: fibrin-coated QHM polymers in vitro, 6 days
Procedure: QHM polymer samples were double-coated with fibrin as previously described with minor modifications^18,19,29-32,48-50. Briefly, QHM polymer samples were incubated with 1 mg/mL fibrinogen (Enzyme Research Laboratories, South Bend, Ind.) in 10 mM sodium phosphate, pH 7.4 (Thermo Fisher Scientific, Waltham, Mass.) overnight. The following day, QHM polymer samples were washed with phosphate-buffered saline (PBS; Life Technologies, Carlsbad, Calif.) to remove unbound fibrinogen and fibrin-coated via incubation with 4 U/mL thrombin (Enzyme Research Laboratories, South Bend, Ind.) for 2 h at 37° C. […] Fibrin-coating was monitored using Alexa Fluor®-conjugated fibrinogen (Life Technologies, Carlsbad, Calif.) on QHM polymer samples (circular discs approximately 1 cm in diameter). Fluorescence images were acquired on an inverted Zeiss AxioObserver Z1 microscope (Carl Zeiss Microimaging, Thornwood, N.Y.) equipped with an X-Cite® Series 120Q metal halide lamp, appropriate filters and an AxioCam MRm camera (Carl Zeiss Microimaging, Thornwood, N.Y.). […]
At designated time points, cells were fixed for 1 min in 3.7% formaldehyde and samples were incubated with ALP stain for 1 h. […] Where required, the ALP-stained images were quantified by calculating the average pixel intensity in Adobe Photoshop 7.0 as previously described^18,19.

C2C12 cells [2] = assay: ALP staining, C2C12 osteoblast differentiation on QHM polymers with BMP-2 in media; type: cell-based, mouse
Procedure: ALP activity was detected according to the manufacturer's instructions (Sigma Aldrich, St. Louis, Mo.) as previously described with minor modifications^18,19.
For studies on the effect of Young's moduli on osteoblast differentiation (using uniform QHM polymer samples), C2C12 cells were seeded into 24 well plates containing uncoated QHM polymer samples (circular discs approximately 1 cm in diameter) at a density of 7.47×10^4 cells per cm^2 overnight in DMEM, 10% FBS and 1% PS media. The following day (Day 0), the media were changed to DMEM, 10% FBS, 1% PS, 100 ng/mL BMP-2 and 0.3% DMSO (With BMP-2 and DMSO) or DMEM, 10% FBS, 1% PS, 100 ng/mL BMP-2 and 25 μM blebbistatin (Selleck Chemicals, Houston, Tex.; With BMP-2 and blebbistatin). Media were changed every 48 h. ALP staining was performed at 4, 8 and 14 days. ALP inhibitory index was defined as the ratio of ALP activity for blebbistain-treated cells to DMSO-treated cells—a value of 1.0 indicated no inhibition while a value of 0.0 indicated complete inhibition.
For studies on the effect of Young's moduli on osteoblast differentiation (using 0 s:300 s UV mechanically-graded QHM polymer samples), C2C12 cells were seeded into 24 well plates containing uncoated QHM polymer samples (rectangular specimens measuring approximately 0.5 cm×1 cm) at a density of 7.47×10^4 cells per cm^2 overnight in DMEM, 10% FBS and 1% PS media. The following day (Day 0), the media were changed to DMEM, 10% FBS, 1% PS, 100 ng/mL BMP-2. Media were changed every 48 h. ALP staining were performed at 3 days post-seeding.
At designated time points, cells were fixed for 1 min in 3.7% formaldehyde and samples were incubated with ALP stain for 1 h. Color images of samples were acquired using an inverted Zeiss AxioObserver Z1 microscope equipped with an AxioCam ICC color camera and a Nikon D70 Digital camera (Nikon Corp., Tokyo, Japan). Where required, the ALP-stained images were quantified by calculating the average pixel intensity in Adobe Photoshop 7.0 as previously described^18,19.

C57BL-6J mice = assay: Mouse subcutaneous implantation of growth factor-biopatterned QHM grafts; type: in vivo; details: 3 μg patterned on fibrin-coated QHM polymer, 14 days subcutaneous
Procedure: Mouse subcutaneous surgeries were performed in accordance with the guidelines established by Stanford University's Administrative Panel on Laboratory Animal Care. Wild-type C57BL-6J mice (Charles River Laboratories, Wilmington, Mass.) between 8 and 12 weeks of age (20-30 g) were used in this study. All mice were maintained in the Stanford Animal Facility, with a 12:12 h light-dark cycle and free access to standard laboratory food and water. Mice were anesthetized by inhalation with isoflurane (4% for induction, 2% for maintenance, Abbott Laboratories, Chicago) as well as administered 0.05 mg/kg Buprenorphine (Hospira Inc., Lake Forest, Ill.) and 25 mg/kg Cefazolin (Thermo Fisher Scientific, Waltham, Mass.) as an analgesic and anti-infective, respectively. Grafts (Square specimens 6×6×1 mm) were comprised of 0 s UV and 300 s UV QHM polymer regions (each measuring 3×3×1 mm) biopatterned with 1) no growth factor, 2) 3 μg FGF-2 on 0 s UV QHM polymer region and 3 μg BMP-2 on 300 s UV QHM polymer region or 3) 3 μg GDF-7 on 0 s UV QHM polymer region and 3 μg BMP-2 on 300 s UV QHM polymer region. Under sterile conditions, a 2.5 cm skin incision was made and grafts were sutured subcutaneously to the skin using 3-0 Nylon sutures (Oasis, Med-Vet International, Mettawa, Ill.) in a bilateral manner. Subsequently, the skin was re-approximated and closed with 3-0 Nylon sutures. […]

[3] = 200 ng/mL versus 100 ng/mL, 4 days

B1: BMP-2: Recombinant human bone morphogenetic protein-2 (Medtronic), bone-promoting cue (protein, UniProt P12643 283-396, looked up)
Bone morphogenetic protein 2: QAKHKQRKRLKSSCKRHPLYVDFSDVGWNDWIVAPPGYHAFYCHGECPFPLADHLNSTNHAIVQTLVNSVNSKIPKACCVPTELSAISMLYLDENEKVVLKNYQDMVVEGCGCR
C2C12 ALP activity on BMP-2 patterns relative to off pattern controls (C2C12 cells [1]): largely increased
Effect of increased BMP-2 dose on ALP activity, cells on QHM polymers (C2C12 cells [2]; [3]): increased the ALP activity
Effect of increased BMP-2 dose on ALP activity, cells on TCPS (C2C12 cells [2]; [3]): had no effect
Effect of increased BMP-2 administration on ALP activity, cells on QHM polymers subjected to longer UV-exposure (C2C12 cells [2]; 6 days versus 4 days BMP-2): increased the ALP activity
Effect of increased BMP-2 administration on ALP activity, cells on TCPS (C2C12 cells [2]; 6 days versus 4 days BMP-2): had no effect
Tissue formed on growth factor pattern in vivo (C57BL-6J mice): reminiscent of immature bone
